Experimental data: patent US8283358B2, “N-sulfonamido polycyclic pyrazolyl compounds” (Elan Pharmaceuticals, Inc., priority 2008, dated 2012)

Target: gamma-secretase (partially purified extract of IMR-32 cell membranes; substrate MBP-C125 Swe fusion protein, cleavage at the Aβ40 site) (Homo sapiens, UniProt P49768)
Assay: Gamma-secretase APP enzyme assay (Example A)
Assay type: biochemical
Conditions: read-out: γAPP IC50; class symbols; assay described in Example A

Structure (SMILES)	IC50 [nM]
O=S(=O)(c1ccc(C(F)(F)F)cc1)N1C2c3ccccc3C1C(F)c1[nH]ncc12 (single isomer, unassigned)	< 100
O=S(=O)(c1ccc(C(F)(F)F)nc1)N1C2Cc3cccc(Br)c3C1c1cn[nH]c1C2 (single isomer, unassigned)	< 100
